# Only a part is listed here, and it is no random draw. Some salts and complexes are drawn in separate pieces, as the source files them; their charges need not balance. Some structures have more than one record in an assay (separate samples or runs), and their calls can disagree. The source made the active and inactive calls. Cut-off read from the data, not from the text of the source: active = growth inhibition above about 70%; inactive = the rest.
# Test: NCI Yeast Anticancer Drug Screen. Data for the rad14 strain (AID 159);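 note: 0% = growth of vehicle-treated control cultures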
# Conditions: S. cerevisiae rad14 strain growth inhibition, stronger effect = higher value
# Experimental: Growth inhibition of yeast strains with defined genetic alterations is measured as a screen for potential anti-cancer activity. Selected strains with alterations in DNA damage repair or cell cycle control were exposed to compounds and growth inhibition was measured relative to vehicle treated controls. The strain used in this assay is rad14
SMILES,growth inhibition (at 1.2 µM),growth inhibition (at 3.7 µM),growth inhibition (at 11.0 µM),growth inhibition (at 33.0 µM),growth inhibition (at 100.0 µM)
O=[N+]([O-])C(F)(COCC(O)CO)[N+](=O)[O-] (stereo not given),inactive: -5%,inactive: -10%,inactive: 15%,active: 72%,active: 92%
Cc1c2ccccc2cc2ccccc12.O=[N+]([O-])c1cc([N+](=O)[O-])c(O)c([N+](=O)[O-])c1,inactive: 0%,inactive: 7%,inactive: 17%,active: 74%,active: 97%
COc1ccccc1N.O=[N+]([O-])c1cc([N+](=O)[O-])cc([N+](=O)[O-])c1,inactive: 2%,inactive: 18%,inactive: 56%,active: 99%,active: 99%
[Au+].[N-]=[N+]=N.c1ccc([PH+](c2ccccc2)c2ccccc2)cc1,inactive: 6%,active: 99%,active: 98%,active: 96%,active: 86%
Cc1ccc2ccc3ccc4ccccc4c3c2c1.O=C1c2cc([N+](=O)[O-])ccc2-c2c1cc([N+](=O)[O-])cc2[N+](=O)[O-],inactive: 2%,inactive: 6%,inactive: 12%,inactive: 22%,inactive: 28%
[Au+].[Au+].c1ccc([PH+](c2ccccc2)c2ccccc2)cc1.c1ccc([PH+](c2ccccc2)c2ccccc2)cc1.n1n[n-]c(-c2nnn[n-]2)n1,inactive: 1%,inactive: 24%,active: 95%,active: 99%,active: 98%
[Au].[C-]#N.[C-]#N,inactive: -21%,inactive: -19%,inactive: -9%,inactive: -5%,inactive: -14%
Nc1ccccc1.O=[N+]([O-])c1cc([N+](=O)[O-])cc([N+](=O)[O-])c1,inactive: 2%,inactive: 11%,inactive: 39%,active: 99%,active: 99%

# — PubChem BioAssay (NCI)
